Where a SMILES comes first, the peptide text is derived from it. [ ]: non-standard residue; d: D form. The star is where a group is joined. Tle = CC(C)(C)[C@H](N)C(=O)O; X1 = C[C@@H](CCCCCN)C(=O)*
What was measured:
[1] = test system: Salmonella typhimurium strains TA98, TA100, TA1535 and TA1537 and Escherichia coli strain WP2 uvrA; conditions: with and without S9; initial data
[2] = test system: thymidine kinase locus of L5178Y TK± mouse lymphoma cells; assay: Mouse lymphoma study; conditions: with and without S9; initial data

CC(C)C[C@H](NC(=O)[C@@H](NC(=O)[C@H](Cc1ccc(O)cc1)NC(=O)[C@@H]1CCCN1C(=O)[C@H](CCCNC(=N)N)NC(=O)[C@@H](C)CCCCCN)C(C)(C)C)C(=O)O [ABS201, hLys-Arg-Pro-Tyr-t-Leu-Leu] (X1-RPY[Tle]L-OH)
Ames study result [1]: inactive | mouse lymphoma study result [2]: inactive
